Compound activity (PubChem)
A selection: hits, their analogues and other compounds. The true share with any hit is near 16%.
TDP1 block: blocks human tyrosyl-DNA phosphodiesterase 1; Q9NUW8; recombinant TDP1, AlphaScreen DNA substrate cleavage; Potency, µM (series often up to 130 µM), without a hit: at the top dose activity change, negative = inhibition, hits mostly inhibitors; 0.28% of 350,000 active; AID 485290; also: potency is read from the fitted curve at half-maximal effect; % is scaled to controls: 0 for no effect and ±100 for the full control effect; nearly all actives have a fitted effect of over 40% in size
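Steps: enzyme plus compound, 15 min RT; add biotin/phosphotyrosine-FITC oligonucleotide (15 nM final), react 5 min; add donor/acceptor beads (10 ug/ml final), 10 min; read AlphaScreen. Tdp1 at 1 nM final.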
DT40 TDP1 no CPT: qHTS for Inhibitors of human tyrosyl-DNA phosphodiesterase 1 (TDP1): qHTS in cells in absence of CPT; DT40 Tdp1-/- hTDP1 cells, no CPT, ATP luminescence, 48 h; Potency, µM (highest dose often 46.2 µM), without a hit: top-dose activity change, negative = growth inhibition, hits mostly inhibitors; 15% of 420,000 active; AID 686978, 2013; also: potency is read from the fitted curve at half-maximal effect; % is scaled to controls: 0 for no effect and ±100 for the full control effect; nearly all actives have a fitted effect of over 55% in size
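Seeded 400 DT40-hTDP1 cells/well (vehicle DMSO, no 20 nM CPT); pinned compounds; ≥48 hr at 37 °C; CellTiter-Glo luminescence as viability measure.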
uPA surface inh: blocks generation of uPA at the cell surface. cell surface uPA generation assay, qHTS. Potency, µM (series often up to 38.3 µM), for inactives: at the highest dose activity change, negative = inhibition, hits mostly inhibitors. AID 540303. 0.31% of 330,000 active; active = well fitted inhibition curve with a large enough effect; inconclusive = small, poorly fitted or top-dose-only effect; inactive = no such curve, though single readings can be large or run the other way; tested in mouse RAW 264.7 cells; also: potency is read from the fitted curve at half-maximal effect; % is scaled to controls: 0 for no effect and ±100 for the full control effect; nearly all actives have a fitted effect of over 55% in size
miR-21 reporter: raises the signal of a miR-21 reporter; AID 2288; 340,000 tested, under 10 active; Potency, µM (doses to about 38.3 µM), inactives show at the top dose reporter change, positive = more light; HeLa miR-21 FLuc reporter, luciferase, 48 h; active = well fitted rising curve with a large enough effect; inconclusive = small, poorly fitted or top-dose-only effect; inactive = no such curve, though single readings can be large or run the other way;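 note: % of control where 0% means no effect; miR-21 action dims this reporter so a rising signal means less miR-21 action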
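HeLa miR-21-FLuc reporter line, endogenous miR-21; 2000 cells/well in DMEM/10% FBS; compound titration up to ~40uM final, 48 h, 37 degree Celsius; luciferase detection reagent, 15 min lysis, CCD luminescence.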
TDP1 cell CPT: growth inhibition of DT40 Tdp1-/-;hTDP1 cells with camptothecin (screen for TDP1 inhibitors); 12% of 420,000 active; chicken DT40 Tdp1-/-;hTDP1 cells + 20 nM CPT, ATP luminescence, 48 h; Potency, µM (doses to about 46.2 µM), for the others: at the top dose activity change, negative = growth inhibition, most hits filed as inhibitors; AID 686979; also: potency is read from the fitted curve at half-maximal effect; % is scaled to controls: 0 for no effect and ±100 for the full control effect; nearly all actives have a fitted effect of over 55% in size
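Cell growth measured by CellTiter-Glo luminescence after a minimum 48 h, 37 C compound exposure with 20 nM CPT in Tdp1-knockout DT40 cells stably expressing hTDP1, seeded 400/well; qHTS titration format.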
Numbers without * were called inactive; ? = inconclusive; . = not tested or not shown. Unless noted, calls follow the shape of the dose curve; as a rule, active = well fitted curve in the direction sought with a large enough effect; inconclusive = small, poorly fitted or top-dose-only effect, or another doubt; inactive = no such curve, though single readings can be large; an effect the other way counts as inactive or inconclusive.

Screens by letter: A = TDP1 block; B = DT40 TDP1 no CPT; C = uPA surface inh; D = miR-21 reporter; E = TDP1 cell CPT
1: O=C(NCCc1ccc(Cl)cc1)c1ccc2c(c1)N(Cc1c(F)cccc1Cl)C(=O)CS2
  A: 6%	B: 2.6µM*	C: .	D: 9%	E: 9.2µM*
2: CCOc1ccc(CCNC(=O)c2ccc3c(c2)N(Cc2ccc(F)cc2)CCS3)cc1
  A: 6%	B: 15µM*	C: .	D: 8%	E: ?
3: COC(=O)CCC(=O)NC1CC(C)(C)Cc2c1cnn2-c1ccccc1 (configuration not stated)
  A: .	B: 6%	C: 3%	D: 2%	E: -3%
4: CCN(CC(=O)NCc1ccc(F)cc1)C(=O)COc1ccccc1[N+](=O)[O-]
  A: 0%	B: 26%	C: ?	D: .	E: -25%
5: COC(=O)C1CCN(C(=O)COC(=O)c2ccc3[nH]c4c(c3c2)CCCC4)CC1
  A: 7%	B: 10µM*	C: -3%	D: .	E: 13µM*
6: COC(=O)C1CCN(C(=O)COC(=O)c2ccc(OC)c(S(=O)(=O)N3CCCc4ccccc43)c2)CC1
  A: 0%	B: 0.41µM*	C: -15%	D: -12%	E: -18%
7: CC1CCCN(C(=O)COC(=O)c2ccc3[nH]c4c(c3c2)CCCC4)C1 (configuration not stated)
  A: 0%	B: 23µM*	C: 0%	D: .	E: ?
8: CCOC(=O)C1CCN(C(=O)COC(=O)c2ccc3[nH]c4c(c3c2)CCCC4)CC1
  A: .	B: 12µM*	C: -1%	D: .	E: 13µM*
9: COC(=O)C1CCN(C(=O)COC(=O)c2ccc(N3CCCC3=O)cc2)CC1
  A: 0%	B: 0%	C: 9%	D: .	E: 4%
10: Cc1cc(/C=C(\C#N)C(=O)Nc2ccc(Cl)cc2)c(C)n1-c1ccc(N2CCOCC2)c([N+](=O)[O-])c1
  A: 6%	B: 7.3µM*	C: -4%	D: 1%	E: 7.3µM*
11: COC(=O)/C(C#N)=C/c1ccc(N2CCOCC2)c([N+](=O)[O-])c1
  A: 5%	B: -9%	C: 0%	D: 0%	E: -5%
12: Cc1cc(/C=C(\C#N)C(=O)NCc2cccs2)c(C)n1-c1ccc([N+](=O)[O-])cc1
  A: 0%	B: -5%	C: .	D: -1%	E: -24%
13: Cc1cccc(NC(=O)/C(C#N)=C\c2cc(C)n(-c3ccc(C(=O)O)cc3)c2C)c1
  A: 0%	B: 18µM*	C: 5%	D: -11%	E: ?
14: CCOC(=O)/C(C#N)=C/c1cc(C)n(-c2ccc(C)cc2)c1C
  A: 0%	B: 18µM*	C: 1%	D: -56%	E: 18µM*
15: Cc1ccc(NC(=O)/C(C#N)=C/c2cc(C)n(-c3ccc(N4CCOCC4)c([N+](=O)[O-])c3)c2C)c(C)c1
  A: 6%	B: 8.2µM*	C: 3%	D: -2%	E: 7.3µM*
16: CCOC(=O)/C(C#N)=C\c1cc(C)n(-c2ccccc2)c1C
  A: 6%	B: ?	C: -3%	D: -51%	E: ?
17: N#CC1(NC(=O)CSc2nnc3n2CCCCC3)CCCCC1
  A: 0%	B: -13%	C: -6%	D: .	E: 15%
18: Cc1cc(/C=C(\C#N)C(=O)Nc2ccccc2)c(C)n1-c1ccc(C(=O)O)cc1
  A: 2%	B: -11%	C: 2%	D: -2%	E: -24%
19: CNC(=O)/C(C#N)=C/c1cc(C)n(-c2ccc(N3CCOCC3)cc2)c1C
  A: 6%	B: ?	C: 4%	D: -27%	E: 3.3µM*
20: CC(C)c1ccc(S(=O)(=O)N2CCN(C(=O)C3CCCCC3)CC2)cc1
  A: 0%	B: -21%	C: -19%	D: 2%	E: ?
21: CC(C)(c1ccc(O)c([N+](=O)[O-])c1)c1ccc(O)c([N+](=O)[O-])c1
  A: .	B: -6%	C: -2%	D: .	E: 4%
22: CN(C)Cc1cc(C(C)(C)c2ccccc2)ccc1O
  A: .	B: ?	C: -3%	D: .	E: 23µM*
23: Clc1ccc(COc2cccc(CNCc3ccncc3)c2)cc1
  A: 3%	B: 18µM*	C: -3%	D: 14%	E: ?
24: O=C(Nc1cccc(Cl)c1)OCc1cnc(Cl)s1
  A: 0%	B: -18%	C: 6%	D: -31%	E: ?
25: O=C(Nc1cccc(Cl)c1)OCCOCCOC(=O)Nc1cccc(Cl)c1
  A: .	B: 16µM*	C: 2%	D: .	E: ?

By substructure: those above containing an NH in an aromatic ring
Screens by letter: A = TDP1 block; B = DT40 TDP1 no CPT; C = uPA surface inh; D = miR-21 reporter; E = TDP1 cell CPT
5: COC(=O)C1CCN(C(=O)COC(=O)c2ccc3[nH]c4c(c3c2)CCCC4)CC1
  A: 7%	B: 10µM*	C: -3%	D: .	E: 13µM*
7: CC1CCCN(C(=O)COC(=O)c2ccc3[nH]c4c(c3c2)CCCC4)C1 (configuration not stated)
  A: 0%	B: 23µM*	C: 0%	D: .	E: ?
8: CCOC(=O)C1CCN(C(=O)COC(=O)c2ccc3[nH]c4c(c3c2)CCCC4)CC1
  A: .	B: 12µM*	C: -1%	D: .	E: 13µM*

(more compounds)
Screens by letter: A = TDP1 block; B = DT40 TDP1 no CPT; C = uPA surface inh; D = miR-21 reporter; E = TDP1 cell CPT
26: CC(C)COC(=O)NCCCOC(=O)Nc1ccccc1
  A: 0%	B: ?	C: 2%	D: -26%	E: ?
27: CC(C)OC(=O)NCCOC(=O)Nc1ccc(Cl)cc1
  A: -2%	B: 15µM*	C: -5%	D: -3%	E: 21µM*
28: CC(C)COC(=O)NCCOC(=O)Nc1cccc(Cl)c1
  A: 3%	B: 16µM*	C: -1%	D: -3%	E: 16µM*
29: CCOc1ccc(NC(=O)CN(C)C(=O)c2cc([N+](=O)[O-])ccc2N2CCCCC2)cc1OCC
  A: .	B: -28%	C: ?	D: .	E: ?
30: Cc1ccc2nc(N3CCCCC3)c(C=O)c(=O)n2c1
  A: 1%	B: .	C: .	D: -49%	E: .
31: CCc1c(C(=O)c2ccc(Cl)cc2)oc2c(C)c3oc(=O)cc(C)c3cc12
  A: 4%	B: -8%	C: -2%	D: 1%	E: -16%
32: Cc1cc(=O)oc2c1ccc1oc(/C(=N/O)c3ccccc3)c(C)c12
  A: 5%	B: 26µM*	C: 0%	D: -4%	E: 21µM*
33: Cc1ccc(/C(=N\O)c2oc3c(C)c4oc(=O)cc(C)c4cc3c2C)cc1
  A: 4%	B: 16µM*	C: -4%	D: -20%	E: 18µM*
34: Cc1[nH]nc(-c2cccnc2)c1N=NN(C)C
  A: .	B: 1.5µM*	C: -11%	D: .	E: 0.82µM*
35: O=C(Nc1ccn(CCCN(CCCn2ccc(NC(=O)OCc3ccccc3)nc2=O)CCc2cc3ccccc3[nH]2)c(=O)n1)OCc1ccccc1
  A: .	B: ?	C: 9%	D: .	E: ?
36: Cc1cc(CNC(=O)CC2C(=O)NCCN2Cc2ccccc2)nn1C (configuration not stated)
  A: 2%	B: 7%	C: 0%	D: 0%	E: 7%
37: O=C(NCc1ccc(Cl)cc1)c1ccc(NC(=O)N2CC3CCCN3c3ccccc32)cc1 (configuration not stated)
  A: 13%	B: 18µM*	C: .	D: 13%	E: 16µM*
38: O=C(NCc1ccc(F)cc1)c1ccc(NC(=O)N2CC3CCCN3c3ccccc32)cc1 (configuration not stated)
  A: 8%	B: 12µM*	C: .	D: 2%	E: 16µM*
39: Cc1ccc(S(=O)(=O)NC(=O)N2CCN(Cc3c(F)cccc3Cl)CC2)cc1
  A: 6%	B: -9%	C: 0%	D: -4%	E: 0%
40: COc1ccc(C(=O)Oc2ccc(N(C)S(=O)(=O)c3ccccc3)cc2)cc1[N+](=O)[O-]
  A: 2%	B: -18%	C: -3%	D: 2%	E: -18%
41: Cc1cccc(C(=O)NCCNC(=O)c2ccccn2)c1
  A: .	B: -11%	C: -1%	D: 3%	E: -7%
42: CC(C)Cc1nc(N2CCN(C(=O)C(C)C)CC2)c(C#N)c2c1CCC2
  A: -4%	B: ?	C: 1%	D: 6%	E: 21µM*
43: Cc1ccc(-c2csc(N3CCC(C(N)=O)CC3)n2)cc1
  A: 4%	B: .	C: 1%	D: .	E: .
44: Cc1ccc(-c2csc(N3CCC(C(N)=O)(N4CCCCC4)CC3)n2)cc1
  A: -8%	B: 21µM*	C: -4%	D: -5%	E: ?
45: CCOCCCNC(=O)c1cc2c(=O)n3cccc(C)c3nc2s1
  A: .	B: -6%	C: 14%	D: 0%	E: -9%
46: CCN(C(=S)NC(=O)c1ccccc1Br)C1CCCCC1
  A: 8%	B: ?	C: -8%	D: -3%	E: 16µM*
47: CCN1CCc2nc(N)sc2C1
  A: 1%	B: 29µM*	C: 0%	D: -1%	E: ?
48: C=CCN1CCc2nc(N)sc2CC1
  A: 13%	B: -2%	C: 21%	D: 5%	E: -23%
